# From PubChem BioAssay (EPA / NIEHS)
# The list shows a part of the results, in another mix than the full data. Active and inactive are the calls of the source. Rule for the calls: active = hit-call score of the fitted dose curve at least 0.9, where 1 is the maximum; inactive = score below 0.9.
# What was measured:
# [1] = ATG_CMV_CIS: Attagene CIS-FACTORIAL HepG2 Assay for human CMV (Internal Marker) (AID 2282928); conditions: HepG2 CMV promoter reporter, transcription factor profiling; actives raise or lower the signal;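 note: endpoint acts as a background internal control marker rather than a target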
# Method in brief: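 24 h chemical treatment, HepG2 with transient multi-reporter transfection; RNA → oligo(dT) RT → PCR → 6-FAM extension → HpaI digest → CE fluorescence. Bidirectional fit, DMSO negative control.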
# [2] = read-out: Interferon-gamma inducible Protein 10 (IP10), CXCL10 (gene 3627); test: BSK_BE3C_IP10: BioMAP Diversity Plus: BE3C Assay for Interferon-gamma inducible Protein 10 (IP10) Biomarker Activity (AID 2283034); conditions: actives raise or lower the signal; primary human bronchial epithelial cells
# Method in brief: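 ELISA readout of IP-10 in BE3C system: primary human bronchial epithelial cells, 24 h post-dosing; bidirectional curve fit vs DMSO baseline.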
# [3] = ATG_DR4_LXR_CIS: Attagene CIS-FACTORIAL HepG2 Assay for human Liver X Receptor (LXR), DR4 submotif (AID 2282929); conditions: HepG2 Attagene DR4 cis-reporter, mRNA transcription; actives raise or lower the signal
# Method in brief: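 Cells were transfected with multiple reporter transcription units, exposed to chemicals for 24 hours, then lysed for RNA. Reporter mRNA induction was measured by RT-PCR with capillary electrophoresis detection and fitted in both directions relative to DMSO.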
SMILES,AC50 [1],AC50 [2],AC50 [3]
Cc1ccc([N+](=O)[O-])c([N+](=O)[O-])c1,active: 49.5 µM,active: 12.5 µM,
CN(C)CCCl,,,active: 36.7 µM
